Data reported in ChEMBL document CHEMBL1125513, “Substituted 1-(aminomethyl)-2-(arylacetyl)-1,2,3,4-tetrahydroisoquinolines: a novel class of very potent antinociceptive agents with varying degrees of selectivity for kappa and mu opioid receptors” (1992).

By UniProt entry, the sequences of proteins in these tests, tags left out. Where a name states a change or a piece, a line headed by the entry shows the natural chain unless it says otherwise.
UniProt P97266, whole entry, looked up: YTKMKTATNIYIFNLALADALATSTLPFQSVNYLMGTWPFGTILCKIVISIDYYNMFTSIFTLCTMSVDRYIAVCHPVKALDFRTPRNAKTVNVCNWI
UniProt P41144: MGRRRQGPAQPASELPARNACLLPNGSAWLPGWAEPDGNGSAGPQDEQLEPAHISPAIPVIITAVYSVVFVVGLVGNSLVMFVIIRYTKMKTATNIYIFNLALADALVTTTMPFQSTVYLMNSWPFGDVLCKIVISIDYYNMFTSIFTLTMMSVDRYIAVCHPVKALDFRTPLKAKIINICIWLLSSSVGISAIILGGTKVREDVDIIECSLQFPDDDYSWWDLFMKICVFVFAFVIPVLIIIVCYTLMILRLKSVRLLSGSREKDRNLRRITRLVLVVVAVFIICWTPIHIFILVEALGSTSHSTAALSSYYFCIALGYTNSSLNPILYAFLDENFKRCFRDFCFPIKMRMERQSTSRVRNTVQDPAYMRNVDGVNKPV
UniProt P41143, whole entry, looked up: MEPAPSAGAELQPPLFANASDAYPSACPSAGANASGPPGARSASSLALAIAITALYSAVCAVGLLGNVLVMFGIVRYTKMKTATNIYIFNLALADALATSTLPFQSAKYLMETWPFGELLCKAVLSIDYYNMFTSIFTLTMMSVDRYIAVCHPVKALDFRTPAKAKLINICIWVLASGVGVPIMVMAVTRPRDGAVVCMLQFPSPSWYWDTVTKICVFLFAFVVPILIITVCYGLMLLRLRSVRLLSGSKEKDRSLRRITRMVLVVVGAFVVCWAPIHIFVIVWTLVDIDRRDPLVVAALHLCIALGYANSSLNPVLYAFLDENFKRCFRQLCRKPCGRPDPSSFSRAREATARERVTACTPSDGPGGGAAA

Key:
Mu-type opioid receptor = Mu-type opioid receptor (Cavia porcellus, UniProt P97266); test: Receptor binding affinity towards opioid receptor mu
[1] = target: Kappa-type opioid receptor (Cavia porcellus, UniProt P41144); test: Receptor binding affinity towards opioid receptor kappa
[2] = target: Delta-type opioid receptor (Homo sapiens, UniProt P41143); test: Receptor binding affinity towards opioid receptor delta

SMILES	Ki (Mu-type opioid receptor)	Ki [1]	Ki [2]
O=C(Cc1ccc(Cl)c(Cl)c1)N1CCc2c(O)cccc2C1CN1CCCC1 (centres undefined)	0.49 nM	0.09 nM	
C[C@@H]1Cc2ccccc2[C@H](CN2CCCC2)N1C(=O)Cc1ccc(Cl)c(Cl)c1	11.1 nM	0.43 nM	
O=C(Cc1ccc(Cl)c(Cl)c1)N1CCc2ccccc2C1CN1CCCC1 (centres undefined)			113 nM
C[C@@H]1CN(C(=O)Cc2ccc(Cl)c(Cl)c2)[C@@H](CN2CCCC2)c2ccccc21	56.5 nM	0.6 nM	
CC1(C)CN(C(=O)Cc2ccc(Cl)c(Cl)c2)C(CN2CCCC2)c2ccccc21 (centres undefined)	239 nM	2.3 nM	
